Values of other authors in patent US11013780B2, “Methods of treating female infertility” (Myovant Sciences GmbH, priority 2016, dated 2021).

Conditions: in vivo; cited from earlier work

In the case of “hCG: human chorionic gonadotropin hormone, used as a trigger due to its structural similarity to LH”, the Half-life is given as 24 to 36 h.
